For 2 molecules, inhibition and Activity results are on record in ChEMBL document CHEMBL4619776, “Probing the Plasticity in the Active Site of Protein N-terminal Methyltransferase 1 Using Bisubstrate Analogues” (J Med Chem, 2020).

The source made the active and inactive calls. No cut-off for these calls is given here.

The target of test [1] is T1, N-terminal Xaa-Pro-Lys N-methyltransferase 1 (Homo sapiens) (UniProt Q9BV86).
T1 sequence (whole entry): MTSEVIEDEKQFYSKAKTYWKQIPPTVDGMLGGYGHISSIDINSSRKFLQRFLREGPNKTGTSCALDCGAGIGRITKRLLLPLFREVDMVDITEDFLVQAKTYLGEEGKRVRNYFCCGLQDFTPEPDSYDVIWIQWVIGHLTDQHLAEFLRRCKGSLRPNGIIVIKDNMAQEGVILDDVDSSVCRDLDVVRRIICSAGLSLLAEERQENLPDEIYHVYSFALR
Conditions: 50 nM.

In test [2] the target is T1, N-terminal Xaa-Pro-Lys N-methyltransferase 1 (Homo sapiens). As to conditions: 200 nM.
Test [3] has the same target. Put plainly: Substrate activity at NTMT1 (unknown origin) assessed as compound methylation at 10 uM incubated overnight by MALDI-MS methylation assay. The gist of the method:
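Compound (10 µM) incubated overnight at 37 °C with 0.1 µM NTMT1 and 3 µM SAM in 20 mM Tris pH 7.5, 50 mM KCl. Quenched 1:1 with 20 mM NH4H2PO4, 0.4% TFA in 1:1 acetonitrile/water. Methylated compound detected by MALDI-MS with 2,5-dihydroxybenzoic acid matrix.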

Regarding `CC[C@H](C)[C@H](NC(=O)[C@H](CCCNC(=N)N)NC(=O)[C@H](CCCCN)NC(=O)[C@@H]1CCCN1C(=O)CNCCCCN(CC[C@H](N)C(=O)O)C[C@H]1O[C@@H](n2cnc3c(N)ncnc32)[C@H](O)[C@@H]1O)C(=O)N[C@@H](C)C(N)=O`, the inhibition entry in test [1] and in test [2] was “Active” each time.

With `CC[C@H](C)[C@H](NC(=O)[C@H](CCCNC(=N)N)NC(=O)[C@H](CCCCN)NC(=O)[C@@H]1CCCN1C(=O)CNCCCCCN(CC[C@H](N)C(=O)O)C[C@H]1O[C@@H](n2cnc3c(N)ncnc32)[C@H](O)[C@@H]1O)C(=O)N[C@@H](C)C(N)=O`, the outcome in test [3] was Active.
